Marks after values point to notes of the source that are not given here.
What was measured:
mice [1] = assay: Spontaneous (locomotor) activity in mice, compound alone (agonism test); type: in vivo; conditions: for Max stim of spontaneous locomotor activity, Compound Alone (in words): at the dose(s) [mg/kg] given in parentheses in the cell
CB1 receptor = CB1 receptor (Rattus norvegicus, UniProt P20272); conditions: 1 nM [3H] CP 55,940, rat whole brain P2 membranes, 30° C. for 1 hr
mice [2] = assay: Rectal temperature (hypothermia) in mice, compound alone (agonism test); type: in vivo; conditions: i.v.; for RT: maximal effect produced by the analog (change in rectal temperature): at 30 mg/kg
mice [3] = assay: Tail-flick antinociception in mice, compound alone (agonism test); type: in vivo; conditions: i.v.
mice [4] = assay: Spontaneous activity in mice, compound in combination with 3 mg/kg Δ^9-THC (antagonism test); type: in vivo
mice [5] = assay: Rectal temperature in mice, compound in combination with 3 mg/kg Δ^9-THC (antagonism test); type: in vivo
mice [6] = assay: Tail-flick antinociception in mice, compound in combination with 3 mg/kg Δ^9-THC (antagonism test); type: in vivo
[7] = at the dose(s) [mg/kg] given in parentheses in the cell

Protein sequences, listed by entry. Tags and fused reporters are not part of them.
UniProt P20272, whole entry: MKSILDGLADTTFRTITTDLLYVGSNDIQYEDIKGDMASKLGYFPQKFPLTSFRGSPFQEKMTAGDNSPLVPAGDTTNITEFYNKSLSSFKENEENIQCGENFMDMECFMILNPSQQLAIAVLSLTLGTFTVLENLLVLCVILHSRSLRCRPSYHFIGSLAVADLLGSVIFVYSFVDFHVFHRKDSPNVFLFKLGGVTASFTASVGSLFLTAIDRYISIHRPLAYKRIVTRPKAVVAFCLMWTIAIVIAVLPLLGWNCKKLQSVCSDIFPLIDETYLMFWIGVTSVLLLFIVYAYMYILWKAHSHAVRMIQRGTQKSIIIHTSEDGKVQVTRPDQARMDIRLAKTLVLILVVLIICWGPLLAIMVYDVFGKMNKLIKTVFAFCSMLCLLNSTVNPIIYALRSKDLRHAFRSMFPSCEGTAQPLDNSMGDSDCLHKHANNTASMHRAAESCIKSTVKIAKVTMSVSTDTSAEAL

SMILES	Max stim of spontaneous locomotor activity, Compound Alone (in words) (mice [1])	SA: > dose, 50% activity not achieved at this highest dose tested (mice [1]; mice, i.v.) [mg/kg]	Ki (CB1 receptor) [nM]	Max % inhibit of spontaneous locomotor activity, Compound Alone (mice [1]; at 30 mg/kg i.v.)	TF: > dose, 50% activity not achieved at this highest dose tested (mice [3]) [mg/kg]	RT: > dose, 50% activity not achieved at this highest dose tested (mice [2]) [mg/kg]	other results
Cc1c(COCC2CCCCO2)nn(-c2ccc(Cl)cc2Cl)c1-c1ccc(Cl)cc1 (stereo not drawn)	None (10)	>10	351	–	–	–	Max % inhibit of spontaneous locomotor activity, Compound Alone (mice [1]; at 10 mg/kg i.v.): 43% (10)
Cc1c(COCc2ccccc2)nn(-c2ccc(Cl)cc2Cl)c1-c1ccc(Cl)cc1	–	>30	108	48% (30)	>30	–	Max stim of spontaneous locomotor activity, Compound Alone (mice [1]; at 10 mg/kg i.v.): 25% (10); RT: maximal effect produced by the analog (change in rectal temperature) (mice [2]): −4 (30)^# ° C.
Cc1c(COCc2ccc(Cl)cc2)nn(-c2ccc(Cl)cc2Cl)c1-c1ccc(Cl)cc1	None (30)	–	109	46% (30)	>30	–	SA: maximal effect produced by the analog (mice [1]; mice, i.v., at 30 mg/kg): 66% (30)^#; RT: maximal effect produced by the analog (change in rectal temperature) (mice [2]): −3 (30)^# ° C.
Cc1c(COCc2c3ccccc3cc3ccccc23)nn(-c2ccc(Cl)cc2Cl)c1-c1ccc(Cl)cc1	–	>10	379	–	>10	>10	Max stim of spontaneous locomotor activity, Compound Alone (mice [1]; at 30 mg/kg i.v.): 4% (30)
Cc1c(COCCN2CCCCC2)nn(-c2ccc(Cl)cc2Cl)c1-c1ccc(Cl)cc1	None (10)	–	2450	–	–	–	Max % inhibit of spontaneous locomotor activity, Compound Alone (mice [1]; at 10 mg/kg i.v.): 69% (10); SA: maximal effect produced by the analog (mice [1]; mice, i.v., at 10 mg/kg): 69% (10)^a
Cc1c(COCc2ccc(F)cc2)nn(-c2ccc(Cl)cc2Cl)c1-c1ccc(Cl)cc1	–	–	54	96% (30)	–	–	Max stim of spontaneous locomotor activity, Compound Alone (mice [1]; at 1 mg/kg i.v.): 31% (1); stimulation of locomotor activity (mice [1]; compound alone, dose not given (see Table 5)): about 30%; SA (suppression of spontaneous activity) ED50 (mice [1]; mice, i.v., 95% confidence limits in parentheses, * = estimated ED50, dose-effect curve not linear): 20 (17-25) μmol/kg; Max % inhibit of spontaneous locomotor activity, Compound with 3 mg/kg Δ^9-THC (mice [4]; at 3 mg/kg i.v.): 72% (3); SA: maximum % antagonism of 3 mg/kg Δ^9-THC (mice [4]; at 3 mg/kg i.v., analog 10 min before Δ^9-THC): 2% (3); Max stim of spontaneous locomotor activity, Compound with 3 mg/kg Δ^9-THC (in words) (mice [4]; [7]): None (3); RT (rectal temperature) ED50 (mice [2]; 30 min post-injection, 95% confidence limits in parentheses): 40 (31-52) μmol/kg; RT: maximum % antagonism of 3 mg/kg Δ^9-THC (mice [5]; at 3 mg/kg i.v.): 11% (3); % MPE: maximum % antagonism of 3 mg/kg Δ^9-THC (mice [6]; at 3 mg/kg i.v.): 40% (3); TF: maximal effect produced by the analog (mice [3]; at 30 mg/kg): 67% (30)^#
Cc1c(COCc2ccc(F)cc2F)nn(-c2ccc(Cl)cc2Cl)c1-c1ccc(Cl)cc1	–	>30	53	49% (30)	>30	>30	Max stim of spontaneous locomotor activity, Compound Alone (mice [1]; at 3 mg/kg i.v.): 24% (3); Max % inhibit of spontaneous locomotor activity, Compound with 3 mg/kg Δ^9-THC (mice [4]; at 3 mg/kg i.v.): 88% (3); Max stim of spontaneous locomotor activity, Compound with 3 mg/kg Δ^9-THC (in words) (mice [4]; [7]): None (3 & 10); SA: maximum % antagonism of 3 mg/kg Δ^9-THC (in words) (mice [4]; [7]): None (3, 10); RT: maximum % antagonism of 3 mg/kg Δ^9-THC (in words) (mice [5]; [7]): None (3, 10); % MPE: maximum % antagonism of 3 mg/kg Δ^9-THC (mice [6]; at 10 mg/kg i.v.): 51% (10)
CCCCCC(O)c1nn(-c2ccc(Cl)cc2Cl)c(-c2ccc(Cl)cc2)c1C (stereo not drawn)	None (30)	>30	657	11% (30)	>30	>30	–
Cc1c(COCc2ccc3ccccc3c2)nn(-c2ccc(Cl)cc2Cl)c1-c1ccc(Cl)cc1	None (30)	>30	216	3% (30)	>30	>30	–
Cc1c(COCc2ccc(C)c3ccccc23)nn(-c2ccc(Cl)cc2Cl)c1-c1ccc(Cl)cc1	–	>30	143	–	>30	>30	Max stim of spontaneous locomotor activity, Compound Alone (mice [1]; at 30 mg/kg i.v.): 4% (30)
Cc1c(COCC2CCCCC2)nn(-c2ccc(Cl)cc2Cl)c1-c1ccc(Cl)cc1	–	–	388	–	–	–	–
COc1ccc(COCc2nn(-c3ccc(Cl)cc3Cl)c(-c3ccc(Cl)cc3)c2C)cc1	None (30)	>30	194	31% (30)	>30	>30	–

Reference: US6509367B1 (priority 2001, dated 2003)
